Results from patent publication US20020103111A1, “Inhibitors of MAdCAM-1-mediated interactions and methods of use therefor” (Millennium Pharmaceuticals, Inc., priority 1996, published 2002).

Sequences of proteins named here, by UniProt entry; tags and fusion partners are left off. Residues count along the entry.
UniProt P13612, 34-1032: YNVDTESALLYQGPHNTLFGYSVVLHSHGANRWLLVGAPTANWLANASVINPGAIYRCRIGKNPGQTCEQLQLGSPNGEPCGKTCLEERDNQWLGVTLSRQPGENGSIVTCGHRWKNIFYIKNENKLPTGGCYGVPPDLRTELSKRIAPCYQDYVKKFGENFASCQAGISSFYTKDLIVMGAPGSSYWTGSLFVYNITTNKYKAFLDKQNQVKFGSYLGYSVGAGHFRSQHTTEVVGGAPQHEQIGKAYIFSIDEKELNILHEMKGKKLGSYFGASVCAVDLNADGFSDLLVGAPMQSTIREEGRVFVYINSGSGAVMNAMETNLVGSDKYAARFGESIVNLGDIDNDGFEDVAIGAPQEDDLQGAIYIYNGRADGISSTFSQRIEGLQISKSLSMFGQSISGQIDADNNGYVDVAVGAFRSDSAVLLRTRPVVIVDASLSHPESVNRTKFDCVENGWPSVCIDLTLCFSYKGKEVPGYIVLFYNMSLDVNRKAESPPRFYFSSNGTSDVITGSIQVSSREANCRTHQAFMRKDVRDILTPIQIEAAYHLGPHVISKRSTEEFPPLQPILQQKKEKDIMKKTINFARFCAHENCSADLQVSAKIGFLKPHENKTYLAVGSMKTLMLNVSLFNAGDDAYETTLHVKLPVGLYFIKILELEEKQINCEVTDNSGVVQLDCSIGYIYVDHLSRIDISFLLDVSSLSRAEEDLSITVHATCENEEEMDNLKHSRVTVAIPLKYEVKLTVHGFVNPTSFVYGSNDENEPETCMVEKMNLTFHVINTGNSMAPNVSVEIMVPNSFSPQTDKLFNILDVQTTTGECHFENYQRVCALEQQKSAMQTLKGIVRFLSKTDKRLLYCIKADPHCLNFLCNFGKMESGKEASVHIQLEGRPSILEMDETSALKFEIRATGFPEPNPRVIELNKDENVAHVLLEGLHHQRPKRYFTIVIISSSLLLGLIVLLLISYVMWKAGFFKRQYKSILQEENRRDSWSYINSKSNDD
UniProt P26010, 20-798: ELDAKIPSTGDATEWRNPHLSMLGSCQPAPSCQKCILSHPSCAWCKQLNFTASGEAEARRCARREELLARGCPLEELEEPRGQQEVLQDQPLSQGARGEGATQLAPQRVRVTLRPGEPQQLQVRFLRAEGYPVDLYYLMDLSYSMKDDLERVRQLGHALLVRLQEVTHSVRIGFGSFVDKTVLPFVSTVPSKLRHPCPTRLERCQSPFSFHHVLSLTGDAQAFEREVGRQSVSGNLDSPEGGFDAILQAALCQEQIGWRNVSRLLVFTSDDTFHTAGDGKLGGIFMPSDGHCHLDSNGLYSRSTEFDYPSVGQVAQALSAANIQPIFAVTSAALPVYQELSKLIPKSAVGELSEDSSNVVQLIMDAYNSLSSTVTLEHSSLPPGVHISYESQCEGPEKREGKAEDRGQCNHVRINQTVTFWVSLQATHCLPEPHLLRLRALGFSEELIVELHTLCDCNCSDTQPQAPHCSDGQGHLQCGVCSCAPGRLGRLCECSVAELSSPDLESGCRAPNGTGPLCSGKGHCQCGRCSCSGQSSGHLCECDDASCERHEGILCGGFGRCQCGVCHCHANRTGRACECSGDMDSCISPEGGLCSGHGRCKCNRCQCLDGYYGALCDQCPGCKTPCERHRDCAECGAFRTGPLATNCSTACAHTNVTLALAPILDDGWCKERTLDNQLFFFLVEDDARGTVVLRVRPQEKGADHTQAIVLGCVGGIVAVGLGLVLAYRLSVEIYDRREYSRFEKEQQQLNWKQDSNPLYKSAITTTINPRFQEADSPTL

Molecular target: T1, murine MAdCAM-1 (MAdCAM-1/mCk fusion protein); α4β7-bearing HUT 78 cells (Homo sapiens, UniProt P13612+P26010)
T1 construct: host or cells: HUT 78 cells (endogenous α4β7); The MAdCAM-1/mCk partner was made in house in baculovirus-infected Sf9 insect cells, used as neat supernatant and captured by rat anti-mCk antibody
Test: Adhesion of HUT 78 cells to MAdCAM-1/mCk fusion protein bound via capture antibody
Assay type: cell-based
Conditions: HUT 78 cell adhesion to MAdCAM-1/mCk; average of two determinations
Description: The compounds of the present invention were evaluated for their biological properties.
A soluble fusion protein comprising murine MAdCAM-1 was produced in a baculovirus expression system and used in the adhesion assay. A fusion gene in which sequences encoding the signal peptide and extracellular domain of murine MAdCAM-1 were fused to sequences encoding a constant region of the murine kappa light chain (mCk) was constructed, and cloned into a baculovirus shuttle vector. Fusion protein produced from the resulting construct contained the integrin binding sequences of murine MAdCAM-1 at the amino-terminus, and the mCk sequence at the carboxy-terminus. Recombinant baculovirus encoding the fusion protein was harvested from infected Sf9 insect cells.
Human T-cell lymphoma cells (HUT 78 cells) activated with Mn^+2 were used for the adhesion assay in a 96-well format. HUT 78 cells were labelled by preincubation with ECECF-AM stain (Molecular Probes). […] The adhesion of HUT 78 cells to MAdCAM-1/mCk fusion protein bound to wells via rat anti-mCk capture antibody was assessed in the presence or absence of each compound. […] Percent inhibition and IC50 values were determined. […]
Cell adhesion was measured in the presence or absence of compounds. […]
Additional determinations were conducted as needed, so that each IC50 was determined over a range which encompassed the IC50.

Work on Ac-Leu-Asp-HyP-Ser-Leu [Example 48] yielded an IC50 of 0.106 mM.

For Ac-Lle-Asp-Thr-Ser-Leu [Example 46], the IC50 was 19 mM.
